Results reported in patent publication US6913892.

Amino acid sequences for entries named in this document (tags omitted). A change or cut given only in a name is not applied to a line headed by its entry.
UniProt P49146, whole entry: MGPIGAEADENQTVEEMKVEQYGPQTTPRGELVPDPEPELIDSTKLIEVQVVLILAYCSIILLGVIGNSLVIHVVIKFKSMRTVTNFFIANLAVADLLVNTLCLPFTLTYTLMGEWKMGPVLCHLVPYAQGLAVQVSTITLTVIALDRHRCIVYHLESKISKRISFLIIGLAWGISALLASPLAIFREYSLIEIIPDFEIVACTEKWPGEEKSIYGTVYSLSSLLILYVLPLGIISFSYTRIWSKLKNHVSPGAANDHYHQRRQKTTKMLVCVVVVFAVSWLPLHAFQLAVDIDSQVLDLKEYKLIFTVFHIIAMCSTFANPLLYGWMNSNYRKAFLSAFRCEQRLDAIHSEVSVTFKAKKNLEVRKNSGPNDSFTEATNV

Target: human Y2 receptor (human) (UniProt P49146)
Test: 125I-PYY displacement, COS-7 membranes

Substance	Ki [nM]
porcine NPY18-36 (from UniProt P01304 27-45) (peptide)	4.2
porcine NPY20-36 (from UniProt P01304 29-45) (peptide)	3.6
